Measurements reported in patent publication US20100199363A1, “ENZYMES FOR DEGRADING HERBICIDES” (priority 2006, published 2010).

Experiment: Glyphosate degradation by GloxA-like homologous proteins, soluble cell-free extracts
Type: biochemical
Excerpt: The GloxA nucleotide and amino acid sequences were compared to the non-redundant nucleotide and protein NCBI databases using BLASTN and BLASTP (Altschul et al., 1997), respectively. Selected putative GloxA-like homologous proteins were then expressed and assayed for glyphosate degradative activity. The nucleotide coding sequences of selected putative homologues were commercially synthesised (Geneart, GmBH), cloned and expressed using the Champion pET200D/TOPO. Expression System (Invitrogen), according to manufacturer's instructions. Recombinant protein expression was verified and quantitated by Coomasie-stained SDS-PAGE analysis and spot-densitometry using AlphaImager 2200 visualization and documentation system (Alpha Innotech).
Enzymatic assays to assess glyphsate degradation were, performed using soluble cell-free protein extracts (partially purified protein) in a 1 ml volume containing 100 μg total cell-free protein (˜10 μg enzyme extract), 1 mM MgCl2, 1 mM glycine in 20 mM Tris-Cl pH 7.2. Negative controls included cell-free extracts from E. coli BL21 Star both containing no expression vector and containing pET200D/TOPO without an insert.

B1: GOBL: putative glycine oxidase from Brevibacterium linens BL2, ZP_00381186, SEQ ID NO:8 (protein)
chain: MDVTAALADASTVPFWLDSDQRPEPLPPLTRDLEADLVIVGGGFTGLWTALQAKERDPGRHVVLVEANSIGWAASGRNGGFCAASLTHGYENGESHLPAENERLAQLGLDNLNEIEAAVTRYGMDVEFERTGELDVATEDYQVPELREAHDPEAGFIFYDQQELAQIVKSPTYKGALWDSREVAMVNPAKLCWELLRVIRELGVEVFEGTKVTDVSDRKTNVQITTLVTSQALEDCASAPCSIITAKRVALATNVFPSLLKRVSLHTVPVYDYALMTEPLSDEQLTSIGWDGRQGIGDCASRFHYYRLSADNRILFGGWDAVYHYGRQVSWKYDQRAETFETLAAHFYETFPQLQGVKFTHKWGGPIDTCSRFFSFFTTAYGKKVAMAAGFTGLGVGASRFAGTVMLDLLSGQDTELTQLEMVRKLPLPFPPEPVAWLGIQMTTNALIKADGNEGRRGPLLKALDAVGMGFDS
modifications: Brevibacterium linens BL2
  Partially Purified Activity [glyphosate degradation]: 480 µmol/min/mg
